For this data set, the system named is male mice of dd-strain. The class given is in vivo. To be noted: death of animals 72 hours following administration. The method, then: Each test compound suspended in 0.5% tragacanth-saline was administered intraperitoneally or orally to male mice of dd-strain(body weight 16-24 g). The lethal dose was estimated from the death of animals 72 hours following administration.

For the molecule `CC(C)Cc1ccc(C(C)C(=O)O)cc1` (stereo not shown) [ibuprofen, 2-(p-isobutylphenyl)propionic acid, reference compound], the “acute toxicity, oral (lethal dose)” value lay within 1000 to 2000 mg/kg.

The record behind these values is patent US4150137A, “Pyridylalkyl esters of 2-(p-isobutylphenyl)acetic acid and propionic acids and use” (Hisamitsu Pharmaceutical Co. Inc., priority 1975, dated 1979).
